1 compound from patent US12396984B2, “Managing microbial dysbiosis with temocillin” (Entasis Therapeutics, Inc., priority 2019, dated 2025) can be followed below.

The test system of this test is ATCC 12290 Bacteroides thetaiotaomicron. In words: microbe, parasite or virus in culture. Conditions: ATCC12290. The class given is cell-based.

≈ marks a conversion by molar mass, not a printed value.

As for `O=C(O)c1cn(C2CC2)c2cc(N3CCNCC3)c(F)cc2c1=O` [Ciprofloxacin], the MIC was determined as 1 µg/mL (≈ 3.02 µM).
